# Screening results deposited in PubChem BioAssay by National Center for Advancing Translational Sciences (NCATS).
# In the library only some 2.3% were active in any assay of this set; here they are far more common.
# Mito fusion yeast: inhibitors of mitochondrial division or activators of mitochondrial fusion; Potency, µM (doses to about 46.1 µM), without a hit: at the highest dose growth rescue (activation), hits mostly activators; S. cerevisiae fusion-defective mutant growth rescue, CellTiterGlo 48 h; actives 0.23% (n = 320,000); further: potency means the concentration at half of the fitted maximal effect; % of control where 0% means no effect; nearly all actives have a fitted effect of over 45% in size
#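 Yeast fusion mutant, YPEG (non-fermentable carbon), compound, 48 h at 37C non-permissive; CellTiterGlo added, 10 min RT, luminescence read. Rescued growth = division inhibition.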
# Nrf2 activator: activates Nrf2 signaling; AREc32 ARE-luciferase reporter (MCF7-derived line), luminescence, 24 h; Potency, µM (top dose mostly 46.1 µM), inactives show top-dose activation, hits mostly activators; actives 0.31% (n = 410,000); AID 624171; further: potency means the concentration at half of the fitted maximal effect; % of control where 0% means no effect; nearly all actives have a fitted effect of over 65% in size
#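 Each well held 1000 AREc32 cells, which were incubated with compound for 24 hr at 37 deg C after overnight attachment, and ARE reporter activity was quantified by firefly luciferase luminescence.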
# miR-21 reporter: miR-21 reporter, rising signal; 340,000 tested, under 10 active; Potency, µM (highest dose often 38.3 µM), for the others: top-dose reporter change, positive = more light; HeLa miR-21 FLuc reporter, luciferase, 48 h; active = well fitted rising curve with a large enough effect; inconclusive = small, poorly fitted or top-dose-only effect; inactive = no such curve, though single readings can be large or run the other way;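 further: % of control where 0% means no effect; miR-21 action dims this reporter so a rising signal means less miR-21 action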
#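 Using DMEM plus 10% FBS, HeLa miR-21-FLuc cells are incubated with test compounds (final up to about 40uM) for 48 hours; firefly luciferase signal is then imaged following reagent-mediated lysis.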
# Nrf2 inh: inhibitors of Nrf2 signaling. actives 2.1% (n = 360,000). Potency, µM (doses to about 46 µM), for the others: top-dose activity change, negative = inhibition, hits mostly inhibitors. A549 ARE-Fluc reporter, luciferase luminescence, 18-24 h; further: potency means the concentration at half of the fitted maximal effect; on the % scale 0 is the no-effect control and ±100 the full control effect; nearly all actives have a fitted effect of over 60% in size
#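 A549 ARE_Fluc cells (5000/well, 5% FBS OPTI-MEM) pre-incubated 2 h, then treated with compounds 18-24 h at 37C/5% CO2 in concentration-response. CellTiter-Fluor viability read first; BugLite luciferase luminescence after 15 min at room temperature gives Nrf2 activity.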
# A549 viability: A549 cytotoxicity, counter-screen for Nrf2 inhibitors; actives 0.16% (n = 390,000); Potency, µM (top dose mostly 46 µM), for the others: at the top dose activity change, negative = cytotoxicity, usual class: inhibitors; A549 ARE-Fluc cells, CellTiter-Fluor viability, 18-24 h; further: potency means the concentration at half of the fitted maximal effect; on the % scale 0 is the no-effect control and ±100 the full control effect
#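 Cytotoxicity counterscreen: CellTiter-Fluor fluorescence was measured in A549 ARE_Fluc cells after 18-24 h of compound exposure in a concentration series. The subsequent BugLite luminescent read reports ARE-luciferase activity.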
# Starred values were filed as active, the others as inactive; ? = inconclusive; nt = not tested or not shown; [ ] = remark or other dose. The call rests on the fitted dose curve; in most records, active means well fitted curve in the direction sought with a large enough effect; inconclusive means small, poorly fitted or top-dose-only effect, or another doubt; inactive means no such curve, though single readings can be large; an effect the other way counts as inactive or inconclusive.
SMILES | Mito fusion yeast | Nrf2 activator | miR-21 reporter | Nrf2 inh | A549 viability
COc1cccc(C(=O)Nc2nc(-c3ccc(S(=O)(=O)N4CCOCC4)cc3)cs2)c1 | 16.0% | 0.5% | 19.7% | 13µM* | -18.4%
Cc1ccc(-c2csc(NC(=O)c3cccc(S(=O)(=O)N4CCN(C)CC4)c3)n2)cc1 | -3.0% | 2.6% | ? | -18.7% | -5.9%
O=C(Nc1nc(-c2ccccc2)cs1)C1CCCCN1S(=O)(=O)c1ccccc1 (stereo unspecified) | 18.8% | 2.3% | 27.3% | ? | -4.5%
O=C(Nc1nc(-c2ccccc2)cs1)C1CCCN(S(=O)(=O)c2ccccc2)C1 (stereo unspecified) | 4.5% | 0.1% | ? | 20.6µM* | 0.0%[1.84 µM]
O=C(Nc1nc(-c2ccccc2)cs1)C1CCCCN1S(=O)(=O)c1ccc(Cl)cc1 (stereo unspecified) | 17.8µM* | 2.5% | 22.9% | ? | -24.9%
O=C(Nc1nc(-c2ccc(S(=O)(=O)N3CCCC3)cc2)cs1)c1cccs1 | 28.6% | 3.7% | 16.8% | nt | -15.5%
COc1cc(C(=O)Nc2nc(-c3ccc(C)cc3)cs2)ccc1OCC(=O)N1CCOCC1 | -9.6% | 5.7% | 29.8% | -25.7% | 7.3%
COc1cc(C(=O)Nc2nc(-c3ccc(F)cc3)cs2)ccc1OCC(=O)N1CCOCC1 | 8.2% | -2.4% | 29.2% | 20.6µM* | -13.1%
O=C(Nc1nc(-c2ccc(S(=O)(=O)N3CCCCCC3)cc2)cs1)c1cccs1 | 2.7% | 3.1% | 19.0% | 6.51µM* | -11.2%
CCc1ccc(CN2CCc3nc(Nc4ccccc4)ncc3C2)cc1 | nt | -0.9% | -1.6% | nt | -4.1%
O=C(Nc1ccc(Br)cc1)c1ccc(F)c(S(=O)(=O)N2CCN(c3ccccn3)CC2)c1 | 21.0% | 2.7% | 16.4% | 23.1µM* | -8.9%
Cc1ccccc1NC(=O)c1ccc(F)c(S(=O)(=O)N2CCN(c3ccccn3)CC2)c1 | 8.2% | 2.2% | 12.2% | nt | 5.7%

# Another view of part of the listing above.
# Screens in order – Mito fusion yeast	Nrf2 activator	miR-21 reporter	Nrf2 inh	A549 viability
> COc1cccc(C(=O)Nc2nc(-c3ccc(S(=O)(=O)N4CCOCC4)cc3)cs2)c1
→ 16.0%	0.5%	19.7%	13µM*	-18.4%
> CCc1ccc(CN2CCc3nc(Nc4ccccc4)ncc3C2)cc1
→ nt	-0.9%	-1.6%	nt	-4.1%

# Next part:
SMILES | Mito fusion yeast | Nrf2 activator | miR-21 reporter | Nrf2 inh | A549 viability
CCCN(CCC)C(=O)/C=C/c1cccc([N+](=O)[O-])c1 | -3.0% | 11.6% | -3.1% | -8.1% | 11.7%
CC(C)N(C(=O)/C=C/c1cccc([N+](=O)[O-])c1)C(C)C | 8.9% | 14.1µM* | -10.3% | 4.4% | 0.1%
COc1cc(-c2nc3ncccn3c2Nc2ccc(C)cc2C)ccc1O | nt | 10.2% | -1.4% | ? | 0.0%
Cc1ccc(C2=CC(=O)C[C@H](c3ccc4c(c3)OCO4)C2)cc1 | 3.98µM* | 4.3% | nt | 2.6% | 0.8%
CC(C)(C)OC(=O)COc1cc(O)c2c(=O)cc(-c3ccccc3)oc2c1 | 4.8% | 3.4% | -2.4% | ? | -2.2%
CC(C)(C)OC(=O)COc1cc(OCC(=O)OC(C)(C)C)c2c(=O)cc(-c3ccccc3)oc2c1 | -3.7% | -2.3% | ? | 23.1µM* | 16.4µM*
NCC1OC(O[C@H]2[C@H](O)[C@@H](OC3C(O)C(N)CC(N)C3OC3OC(CO)C(O)C(O)C3N)O[C@@H]2CO)C(N)C(O)C1O (stereo partly specified) | -5.6% | nt | nt | nt | nt
CCc1ccccc1S(=O)(=O)Cc1ccc(C(=O)NCCc2ccc(Cl)cc2)o1 | nt | 3.3% | ? | 23.1µM* | ?
O=C(NCCc1ccc(Cl)cc1)c1ccc(CS(=O)Cc2ccc(Cl)cc2)o1 (stereo unspecified) | -9.5% | 1.9% | 20.4% | 25.9µM* | ?
O=C(NCc1ccccc1Cl)c1ccc(CS(=O)(=O)c2ccc(Br)cc2)o1 | nt | 5.9% | 24.2% | 23.1µM* | ?
CCc1ccccc1S(=O)(=O)Cc1ccc(C(=O)NCc2ccc(Cl)cc2)o1 | nt | 4.6% | 22.3% | ? | -0.6%
CSc1ccc(CCNC(=O)c2ccc(CS(=O)Cc3ccc(Cl)cc3)o2)cc1 (stereo unspecified) | 1.6% | -0.3% | 19.9% | 2.8% | -1.6%
COc1ccc(-c2nc(C)c(CCNC(=O)C(=O)Nc3cccc(F)c3)s2)cc1OC | nt | 0.1% | -30.6% | nt | -8.1%
Cc1ccc(CNC(=O)C(Cc2ccccc2)NS(=O)(=O)c2cccs2)cc1 (stereo unspecified) | 2.2% | -0.1% | 7.5% | ? | 0.3%

# 2 entries from above in a different format.
# Below each compound: Mito fusion yeast, Nrf2 activator, miR-21 reporter, Nrf2 inh, A549 viability
CSc1ccc(CCNC(=O)c2ccc(CS(=O)Cc3ccc(Cl)cc3)o2)cc1 (stereo unspecified)
→ 1.6%, -0.3%, 19.9%, 2.8%, -1.6%
COc1ccc(-c2nc(C)c(CCNC(=O)C(=O)Nc3cccc(F)c3)s2)cc1OC
→ nt, 0.1%, -30.6%, nt, -8.1%
